Data as given in patent US20110008465A1, “SESQUITERPENE FORMULATIONS, KITS AND METHODS OF USE THEREOF” (priority 2007, published 2011).

Experiments:
Assay in all cases: Chou and Talalay combination assay with beta-caryophyllene
Details in all cases: anticancer drug in combination with beta-caryophyllene; Chou and Talalay CI; 48 h
[1] = system: GL-261 (murine glioblastoma); type: cell-based
[2] = system: U-251 (human glioblastoma); type: cell-based
PA-1 (ovary cancer) = type: cell-based, human
[3] = system: MDA-MB-231 (breast cancer); type: cell-based, human
B16 (murine melanoma) = type: cell-based
MCF-7 (breast cancer) = type: cell-based, human
MEL-2 (human melanoma) = type: cell-based
A-549 (lung cancer) = type: cell-based, human
DLD-1 (colon cancer) = type: cell-based, human

Compound	Potentiating activity GL-261 [1]	Potentiating activity U-251 [2]	Potentiating activity PA-1 (PA-1 (ovary cancer))	Potentiating activity MDA [3]	Potentiating activity B16 (B16 (murine melanoma))	Potentiating activity MCF-7 (MCF-7 (breast cancer))	Potentiating activity MEL-2 (MEL-2 (human melanoma))	Potentiating activity A-549 (A-549 (lung cancer))	Potentiating activity DLD-1 (DLD-1 (colon cancer))
N[C@@H](Cc1ccc(N(CCCl)CCCl)cc1)C(=O)O [Melphalan, melphalan]	(1) (Very High: potentiating or additive activity to IC20 and CI < 0.6 to IC50)	(1) (Very High: potentiating or additive activity to IC20 and CI < 0.6 to IC50)	(1) (Very High: potentiating or additive activity to IC20 and CI < 0.6 to IC50)	(3) (Moderate: 0.5 < CI < 0.8 at IC50)	(1) (Very High: potentiating or additive activity to IC20 and CI < 0.6 to IC50)	(2) (High: CI below 0.5 at IC50)	(1) (Very High: potentiating or additive activity to IC20 and CI < 0.6 to IC50)	(4) (Weak: 0.8 < CI < 1 at IC50)	(3) (Moderate: 0.5 < CI < 0.8 at IC50)
CC(=O)O[C@@]12CO[C@@H]1C[C@H](O)[C@@]1(C)C(=O)[C@H](O)C3=C(C)[C@@H](OC(=O)[C@H](O)[C@@H](NC(=O)OC(C)(C)C)c4ccccc4)C[C@@](O)([C@@H](OC(=O)c4ccccc4)[C@H]21)C3(C)C [Taxotere ™, docetaxel]	(3) (Moderate: 0.5 < CI < 0.8 to IC50)	(1) (Very High: potentiating or additive activity to IC20 and CI < 0.6 to IC50)	(1) (Very High: potentiating or additive activity to IC20 and CI < 0.6 to IC50)	(4) (Weak: 0.8 < CI < 1 at IC50)	(1) (Very High: potentiating or additive activity to IC20 and CI < 0.6 to IC50)	(1) (Very High: CI equal or below 1 at IC20 and Cl below 0.6 to IC50)	(3) (Moderate: 0.5 < CI < 0.8 to IC50)	(3) (Moderate: 0.5 < CI < 0.8 at IC50)	(3) (Moderate: 0.5 < CI < 0.8 at IC50)
